1 substance from patent US7166726B2, “Aryl substituted 3,4-dihydroanthracene derivatives having retinoid antagonist or retinoid inverse agonist type biological activity” (Allergan, Inc., priority 1996, dated 2007) can be followed below.

Chains of the proteins cited; added tags and fusions are not shown.
UniProt P10826, whole entry, species assumed: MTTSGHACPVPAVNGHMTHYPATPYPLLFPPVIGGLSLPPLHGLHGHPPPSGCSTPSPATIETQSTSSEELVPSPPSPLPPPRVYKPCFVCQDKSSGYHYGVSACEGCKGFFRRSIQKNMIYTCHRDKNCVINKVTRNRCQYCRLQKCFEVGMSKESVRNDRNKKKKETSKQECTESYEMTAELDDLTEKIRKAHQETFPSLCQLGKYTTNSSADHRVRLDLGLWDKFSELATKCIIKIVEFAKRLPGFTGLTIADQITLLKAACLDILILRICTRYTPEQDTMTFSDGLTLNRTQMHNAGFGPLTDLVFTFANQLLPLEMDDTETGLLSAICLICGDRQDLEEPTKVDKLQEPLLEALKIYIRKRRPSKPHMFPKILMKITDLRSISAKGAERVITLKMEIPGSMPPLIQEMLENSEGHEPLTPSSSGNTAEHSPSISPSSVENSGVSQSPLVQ
UniProt P13631, whole entry, species assumed: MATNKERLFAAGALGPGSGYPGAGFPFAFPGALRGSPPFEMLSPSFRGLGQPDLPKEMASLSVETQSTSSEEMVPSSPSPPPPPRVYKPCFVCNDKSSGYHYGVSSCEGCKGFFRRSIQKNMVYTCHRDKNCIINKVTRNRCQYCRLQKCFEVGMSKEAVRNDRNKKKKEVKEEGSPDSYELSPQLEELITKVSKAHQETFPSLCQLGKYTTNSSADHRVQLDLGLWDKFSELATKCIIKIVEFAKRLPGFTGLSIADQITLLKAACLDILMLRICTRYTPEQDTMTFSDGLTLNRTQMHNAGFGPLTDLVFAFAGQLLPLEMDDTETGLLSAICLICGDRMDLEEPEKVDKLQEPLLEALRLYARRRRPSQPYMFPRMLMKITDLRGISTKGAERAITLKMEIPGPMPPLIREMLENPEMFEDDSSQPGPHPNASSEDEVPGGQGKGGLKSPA
UniProt P10276, whole entry, species assumed: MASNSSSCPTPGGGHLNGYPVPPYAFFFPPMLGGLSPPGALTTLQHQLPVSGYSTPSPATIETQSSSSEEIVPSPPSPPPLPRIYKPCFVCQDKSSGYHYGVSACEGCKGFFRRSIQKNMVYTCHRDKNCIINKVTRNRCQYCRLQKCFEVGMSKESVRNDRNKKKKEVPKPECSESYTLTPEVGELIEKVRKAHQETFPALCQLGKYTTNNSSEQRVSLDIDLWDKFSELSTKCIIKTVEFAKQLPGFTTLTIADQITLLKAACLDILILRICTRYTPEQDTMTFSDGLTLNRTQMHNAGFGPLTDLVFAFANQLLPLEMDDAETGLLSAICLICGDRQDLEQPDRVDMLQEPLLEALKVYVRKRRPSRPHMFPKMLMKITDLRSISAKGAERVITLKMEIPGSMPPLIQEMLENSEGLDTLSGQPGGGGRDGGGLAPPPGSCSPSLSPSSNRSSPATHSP

Usually Kd stands for the constant that tells how readily two partners part at equilibrium.

The target in one assay is RARβ (Homo sapiens, UniProt P10826). The assay can be described thus: Ligand binding assay, RARβ. The source says: (§1) A holoreceptor transactivation assay and a ligand binding assay which measure the antagonist/agonist like activity of the compounds of the invention, or their ability to bind to the several retinoid receptor subtypes, respectively, are described in published PCT Application No. WO WO93/11755 (particularly on pages 30–33 and 37–41) published on Jun. 24, 1993, the specification of which is also incorporated herein by reference. A description of the holoreceptor transactivation assay is also provided below.
(§2) CV1 cells (5,000 cells/well) were transfected with an RAR reporter plasmid MTV-TREp-LUC (50 ng) along with one of the RAR expression vectors (10 ng) in an automated 96-well format by the calcium phosphate procedure of Heyman et al. Cell 68, 397–406, (1992). For RXRα and RXRγ transactivation assays, an RXR-responsive reporter plasmid CRBPII-tk-LUC (50 ng) along with the appropriate RXR expression vectors (10 ng) was used substantially as described by Heyman et al. above, and Allegretto et al. J. Biol. Chem. 268, 26625–26633. For RXRβ transactivation assays, an RXR-responsive reporter plasmid CPRE-tk-LUC ([…]) along with RXRβ expression vector ([…]) was used as described in above. These reporters contain DRI elements from human CRBPII and certain DRI elements from promoter, respectively. […]

In a further assay the target is RARγ (Homo sapiens, UniProt P13631). The assay can be described thus: Ligand binding assay, RARγ. The note with it: read-out: Kd TATγ.
From the text: as §1, §2

The target of another assay is RARα (Homo sapiens, UniProt P10276). The assay can be described thus: Ligand binding assay, RARα.
From the text: as §1, §2

Consider “4-[1(5-Methyl-thien-2-yl)3,4-dihydro-4,4-dimethyl-anthracen-8-yl]-benzoic acid [Compound 4]”, for which the Kd on RARβ stood at 6 nM; at RARγ, 11 nM; on RARα, 15 nM.
